Test results as given in US7256200B2, “Method and composition for potentiating an oplate analgesic” (The Board of Trustees of the University of Illinois, a body …, priority 2003, dated 2007).

Test system: opioid receptors
Settings: morphine 10 μM; 10 μM forskolin, 250 μM 3-isobutyl-1-methylxanthine, 37° C., 15 minutes; p<0.001; FIG. 2

CN1CC[C@]23c4c5ccc(O)c4O[C@H]2[C@@H](O)C=C[C@H]3[C@H]1C5 [morphine]
inhibition of cAMP accumulation: 63%
